Literature values, collected in paper PMC5177531 (ACS chemical neuroscience, 2016).

System: MOR-1 variants (Oprm1)
Details: mouse, in vivo; cited from earlier work

CCC(=O)C(CC(C)N(C)C)(c1ccccc1)c1ccccc1 (centres unmarked) [Methadone]
MOR-1 Variants required for analgesia: 7TM

CN1CC[C@]23c4c5ccc(O)c4O[C@H]2[C@@H](O)C=C[C@H]3[C@H]1C5 [Morphine]
MOR-1 Variants required for analgesia: 7TM
